{"source": "ChEMBL document CHEMBL1155369", "about": "“Design and optimization of a series of novel 2-cyano-pyrimidines as cathepsin K inhibitors” (Bioorg Med Chem Lett, 2010)", "key": {"[1]": {"species": "Homo sapiens", "experiment": "Half life in human plasma"}, "[2]": {"experiment": "Half life in Sprague-Dawley rat at 2 mg/kg, iv and 10 mg/kg, po", "format": "ADME, organism-based", "conditions": "in vivo"}}, "data": [{"smiles": "N#Cc1nc(NC2CCCCC2)nc(N2CCNCC2)n1", "values": [{"measurement": "half-life", "setting": "[1]", "result": "> 150", "unit": "min"}, {"measurement": "half-life", "setting": "[2]", "result": 156, "unit": "min"}]}]}
